Assay results: US20090136470A1, “REGULATORY T CELLS AND METHODS OF MAKING AND USING SAME” (priority 2007, published 2009)

System: naïve CD4^+T cells from B7.1/2^−/− IL-2^+/+ or B7.1/2^−/− IL-2^−/− mice
Assay: RA-mediated effects on T cell differentiation without IL-2 (anti-IL-2 or IL-2−/− T cells) or with exogenous IL-2
Assay type: cell-based, mouse
Description: C57BL/6 CD45.1 (Ly5.1) and CD45.2 (Ly5.2), OT-I TCR-transgenic (C57BL/6 background), RAG1^−/− (C57BL/6 background), B7.1/2 double-knockout (C57BL/6 background) and IL-2^−/− (C57BL/6 background) mice were purchased from The Jackson Laboratories (USA). To obtain B7.1/2-IL-2 tripleknockout mice, B7.1/2^−/− and IL-2^−/− mice were crossed in our animal facility. OT-II CD90.1 TCR transgenic mice (C57BL/6 background). Mice were maintained under specific pathogen-free conditions and sentinel mice from the RAG1^−/−mice colony were tested to be negative for Helicobacter spp. and Citrobacter rodentium. Mice were used at 7-12 weeks of age. Animal care and experimentation were consistent with the NIH guidelines and were approved by the Institutional Animal Care and Use Committee at the La Jolla Institute for Allergy and Immunology.
The culture medium used for dendritic cell-T cell cultures was Iscove's modified Dulbecco medium (IMDM) (Gibco, USA) supplemented with 10% heat-inactivated FCS, 2 mM L-glutamine, 100 U/ml penicillin, 100 μg/ml streptomycin, and 5 mM β-mercaptoethanol (all Sigma, USA). […] For the study shown in FIG. 4A, after sorting of naive CD4^+ cells (CD25^−CD44^lowCD62L^+), cells were washed twice in PBS+0.1% BSA, counted and labeled with 2 μM of CFSE (Carboxyfluorescein diacetate, succinimidyl ester) (Molecular Probes, USA) at a concentration of 5−10×10^6 cells per ml in PBS-0.1% BSA. […]

**Q.** What does the source list for “IL-2: exogenous cytokine IL-2 (200 u/ml)”?
**A.** CD103 phenotype of the Foxp3^+Tregs generated (TGF-β-dependent Foxp3 differentiation): CD103^−; IL-17 cytokine secretion (ELISA) (culture supernatants): did not
